Consider one compound from patent US11168080B2, “Dynamin-1-like protein inhibitors” (Mitobridge, Inc., priority 2017, dated 2021).

Chains of the proteins cited; added tags and fusions are not shown.
UniProt O00429, whole entry: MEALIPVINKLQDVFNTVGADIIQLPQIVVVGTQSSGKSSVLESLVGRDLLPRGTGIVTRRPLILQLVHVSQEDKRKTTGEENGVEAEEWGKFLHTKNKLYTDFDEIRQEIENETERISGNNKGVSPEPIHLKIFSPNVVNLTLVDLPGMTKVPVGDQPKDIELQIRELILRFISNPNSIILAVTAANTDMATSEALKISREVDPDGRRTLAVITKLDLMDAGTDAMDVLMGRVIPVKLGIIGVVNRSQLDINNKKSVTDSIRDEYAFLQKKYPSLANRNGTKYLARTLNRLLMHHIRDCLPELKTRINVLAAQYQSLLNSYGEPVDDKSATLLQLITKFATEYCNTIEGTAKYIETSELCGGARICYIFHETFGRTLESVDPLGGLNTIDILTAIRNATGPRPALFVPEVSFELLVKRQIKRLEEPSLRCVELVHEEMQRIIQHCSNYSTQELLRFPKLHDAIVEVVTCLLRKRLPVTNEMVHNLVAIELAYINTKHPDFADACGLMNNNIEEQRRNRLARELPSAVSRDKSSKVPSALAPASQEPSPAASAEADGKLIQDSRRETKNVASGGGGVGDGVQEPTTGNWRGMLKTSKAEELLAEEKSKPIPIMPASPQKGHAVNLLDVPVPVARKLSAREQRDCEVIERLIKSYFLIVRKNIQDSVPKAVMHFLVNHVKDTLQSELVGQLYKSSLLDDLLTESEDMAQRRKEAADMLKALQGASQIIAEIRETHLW

The target of this test is Drp1 (Homo sapiens (Human), UniProt O00429). In words: Drp1 Activity Screen: colorimetric (malachite green) GTPase assay. Particulars: max % inhibition of Drp1 GTPase activity; 0.6 μM Drp1, 0.1 mg/mL liposomes, 1 mM GTP, 20 min at 37° C. It counts as biochemical.

`Cc1cc(C(=O)Nc2ccc(C(=O)O)cc2)n(Cc2csc(N(C)C)n2)c1` came in with a max % inh of 59%.
